Earlier results in article PMC4764904, “Development of Spexin-based Human Galanin Receptor Type II-Specific Agonists with Increased Stability in Serum and Anxiolytic Effect in Mice” (Scientific Reports, 2016).

System: GALR1
Set-up: method as in PMID 24517231
Conditions: cited from earlier work

galanin
Action at GALR1 (in words): activates all three receptor subtypes
